In US12617776B2, “Stable salt and crystal forms of 2-[3-({1-[2-(dimethylamino)ethyl]-2-(2,2-dimethylpropyl)-1H-1,3-benzodiazol-5-yl}sulfonyl)azetidin-1-yl]ethan-1-ol” (priority 2020, dated 2026):

Legend:
[1] = Water activity experiments of AAT-730 HCl salt; type: physicochemical; conditions: Aw at most 0.2
Protocol: Water activity experiments were carried out to determine if the water activity of the solvent influenced which form was isolated. […] A mixture was isolated at Aw at most 0.4 and this may be close to the critical water activity.

[2] = 7 days at 25° C./60% RH, 40° C./75% RH and 70° C./75% RH
[3] = 7 days at 25° C./60% RH, 40° C./75% RH and 70° C./75% RH; remark: listed apart in the source
[4] = Protocol: The aliquot volumes were typically 25-100 μL.
From the infrared (IR) transmission data of the sample vials, dissolution and precipitation events were recorded as the point of complete transmission of IR and the onset of turbidity by IR respectively.
Samples were held at ambient temperature for 18 hours to maximize the chance of precipitation. Any recoverable solids were analyzed by XRPD.

SMILES	stability in water activity experiments [1]	1H NMR analysis of post-stressed samples (chemical stability) [2]	XRPD of post-stressed samples (physical form) [2]	1H NMR analysis of post-stressed samples (chemical stability) [3]	(A) - Solvents ([4]; solvent systems in which the salt was soluble in <=50 volumes (>=20 mg/mL) at ambient temperature)	(C) - Anti-solvents ([4]; solvent systems: not soluble in 50 volumes at all temperatures studied)
CN(C)CCn1c(CC(C)(C)C)nc2cc(S(=O)(=O)C3CN(CCO)C3)ccc21 [AAT-730 HCl salt Pattern 2]	most stable form; also recorded: stable	no change; also recorded: chemically stable	remained as Pattern 2; also recorded: No change in physical form			
CN(C)CCn1c(CC(C)(C)C)nc2cc(S(=O)(=O)C3CN(CCO)C3)ccc21 [AAT-730 HCl salt, HCl salt of 2-[3-({1-[2-(dimethylamino)ethyl]-2-(2,2-dimethylpropyl)-1H-1,3-benzodiazol-5-yl}sulfonyl)azetidin-1-yl]ethan-1-ol]				no change; also recorded: chemically stable	DMSO/water; also recorded: EtOH/water (50:50)	ACN and DCM and EtOH and THF and acetone and acetone/water

“Also recorded” adds a separate entry of the source. Counter-ions that a name gives are not always drawn. Like-named read-outs stand apart in the source and are kept apart here.
